## scFv variants of Ab-14 (light chain) against a SARS-CoV-2 spike peptide

From the AlphaSeq antibody data of Li et al. 2023 (doi:10.1038/s41467-023-39022-2), copy in the FLAb collection.

Target: peptide PDVDLGDISGINAS, taken from heptad repeat 2 (HR2) of SARS-CoV-2 spike.

Parent scFv Ab-14: VH joined to VL by a 15-residue (Gly4Ser)3 linker. Changes lie in the light chain CDRs alone.
VH: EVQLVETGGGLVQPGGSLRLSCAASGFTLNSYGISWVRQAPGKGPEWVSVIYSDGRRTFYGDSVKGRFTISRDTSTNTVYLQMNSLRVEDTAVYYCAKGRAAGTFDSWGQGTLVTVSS
VL: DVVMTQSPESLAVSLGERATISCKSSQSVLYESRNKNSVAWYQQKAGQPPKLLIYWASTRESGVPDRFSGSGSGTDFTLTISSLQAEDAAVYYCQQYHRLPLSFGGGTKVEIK

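The starting antibody came from a phage panning campaign against this peptide. Designed CDR sequences, proposed from the first random library and measured here. Several design methods are mixed in this list. AlphaSeq pools MATa yeast showing the antibodies with MATalpha yeast showing the peptide. Binding brings cells together so that they mate, and sequencing counts the barcode pairs among the diploids. The ratio of observed to expected reads was calibrated, replicate by replicate, on BCL2-family standards whose Kd was known from biolayer interferometry. There are six technical replicates.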

The whole VL of each variant is written out.
Affinities are written as log10 Kd with Kd in nM; a lower number is a better binder.
Averages over replicates are reported, and they cover detected replicates only.
"nd" means that the variant was in the library but no mating with the target was seen in any replicate; the authors take this as a sign of poor binding, and no number exists.

VL	mean log10 Kd (nM)	replicates with signal	empty controls
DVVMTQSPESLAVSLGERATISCKLQQSWLYESRNKNSVAWYQQKAGQPPKLLIYSASTREEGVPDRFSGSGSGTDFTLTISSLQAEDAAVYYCQQYHRLPLSFGGGTKVEIK	-0.40	6 of 6	2 of 18
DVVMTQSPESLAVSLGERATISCKLSQVTEYESRNKNNVAWYQQKAGQPPKLLIYDLSTRGQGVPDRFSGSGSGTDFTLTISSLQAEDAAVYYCQDYHRLPLSFGGGTKVEIK	-0.32	6 of 6	2 of 18
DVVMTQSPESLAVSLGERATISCTIGQMFNGESRSRNSVAWYQQKAGQPPKLLIYQASTRESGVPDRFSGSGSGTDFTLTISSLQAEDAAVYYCQSYDRLPLSFGGGTKVEIK	1.64	5 of 6	0 of 18
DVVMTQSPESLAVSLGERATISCTLYGLMLSMSKNKNSVAWYQQKAGQPPKLLIYEMTTREKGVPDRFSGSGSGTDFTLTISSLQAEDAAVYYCQQYDRLPLVFGGGTKVEIK	1.43	6 of 6	1 of 18
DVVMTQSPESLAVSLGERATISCKSSQSWLLESRNKNSVAWYQQKAGQPPKLLIYHASTRESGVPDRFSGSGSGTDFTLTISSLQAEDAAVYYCQQYHRLPLSFGGGTKVEIK	0.76	4 of 6	0 of 18
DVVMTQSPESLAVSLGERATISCHQSPSELYESRNKNNVAWYQQKAGQPPKLLIYNASTRESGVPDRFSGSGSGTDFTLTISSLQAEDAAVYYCQQYHRLPLSFGGGTKVEIK	-0.29	6 of 6	1 of 18
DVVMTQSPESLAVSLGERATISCKLSQSVLYESRNKNSVAWYQQKAGQPPKLLIYNASTRCMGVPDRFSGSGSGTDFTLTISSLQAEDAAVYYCQQYHRLPLSFGGGTKVEIK	-0.11	6 of 6	2 of 18
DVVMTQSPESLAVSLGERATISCKSSKSVLYTSRNKNSVAWYQQKAGQPPKLLIYKASTRISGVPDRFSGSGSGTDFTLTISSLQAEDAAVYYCQQYHRLPLSFGGGTKVEIK	nd	0 of 6	1 of 18
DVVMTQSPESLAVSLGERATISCALSQSELYESRMWNSVAWYQQKAGQPPKLLIYNASTREDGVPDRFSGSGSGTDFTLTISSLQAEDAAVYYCQQYHRLPLSFGGGTKVEIK	1.38	6 of 6	0 of 18
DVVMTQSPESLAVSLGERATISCKSSQSVHWESRNKNSVAWYQQKAGQPPKLLIYWASTRESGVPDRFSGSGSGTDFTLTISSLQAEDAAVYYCQQYHRLPLSFGGGTKVEIK	4.20	1 of 6	0 of 18
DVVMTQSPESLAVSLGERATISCMMSQVTGLGQRQRNNVAWYQQKAGQPPKLLIYQTSTREPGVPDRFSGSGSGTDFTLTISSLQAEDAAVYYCQQYDRLPLVFGGGTKVEIK	0.56	6 of 6	0 of 18
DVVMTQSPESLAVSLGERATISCKSSGSVHYESRNKNSVAWYQQKAGQPPKLLIYWASTRESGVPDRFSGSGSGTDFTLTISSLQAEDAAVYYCQQYHRLPLSFGGGTKVEIK	2.61	5 of 6	1 of 18
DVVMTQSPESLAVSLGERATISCHLSLRLSYGKMLQNAVAWYQQKAGQPPKLLIYGVQHRMTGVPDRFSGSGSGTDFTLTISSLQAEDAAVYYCQQYARLPLLFGGGTKVEIK	1.45	2 of 6	0 of 18
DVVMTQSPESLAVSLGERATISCKLSYSELYESRNKNSVAWYQQKAGQPPKLLIYEASTRESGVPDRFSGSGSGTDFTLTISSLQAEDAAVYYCQQYHRLPLSFGGGTKVEIK	0.04	6 of 6	1 of 18
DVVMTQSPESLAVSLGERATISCKMSQSELYESRNKNSVAWYQQKAGQPPKLLIYNASQRESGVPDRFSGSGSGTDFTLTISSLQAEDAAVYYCQQYHRLPLSFGGGTKVEIK	0.18	6 of 6	0 of 18
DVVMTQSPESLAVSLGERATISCKSSISYDYESRNKNSVAWYQQKAGQPPKLLIYAASTRESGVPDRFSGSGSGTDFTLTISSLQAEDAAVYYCQQYHRLPLSFGGGTKVEIK	-0.24	6 of 6	2 of 18
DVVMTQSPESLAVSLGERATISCKVSEFMKGLMMMKDSIAWYQQKAGQPPKLLIYDNNTRGSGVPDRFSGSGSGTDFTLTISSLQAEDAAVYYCQQYDRLPLSFGGGTKVEIK	1.93	3 of 6	0 of 18
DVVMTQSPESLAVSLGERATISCKMSQSVLYESRNKMSVAWYQQKAGQPPKLLIYWASTRESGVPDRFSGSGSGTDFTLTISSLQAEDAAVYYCQQYHRLPLDFGGGTKVEIK	3.13	3 of 6	1 of 18
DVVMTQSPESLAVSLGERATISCRFTEHILGLENKIYAIAWYQQKAGQPPKLLIYNATVLMEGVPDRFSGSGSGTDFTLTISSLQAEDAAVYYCQQYFRLPFAFGGGTKVEIK	0.59	6 of 6	1 of 18
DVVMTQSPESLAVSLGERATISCKVQQSDLYESRNKNSVAWYQQKAGQPPKLLIYDASTRESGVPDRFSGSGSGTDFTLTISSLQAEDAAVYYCQQYHRLPLSFGGGTKVEIK	-0.02	6 of 6	0 of 18
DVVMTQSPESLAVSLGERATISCKLSQSQLYESRNCNSVAWYQQKAGQPPKLLIYNASTRESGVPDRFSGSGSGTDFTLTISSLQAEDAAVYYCQQYHRLPLSFGGGTKVEIK	0.44	6 of 6	0 of 18
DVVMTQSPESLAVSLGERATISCKIGQQVTYESTNKSAIAWYQQKAGQPPKLLIYQMTTREEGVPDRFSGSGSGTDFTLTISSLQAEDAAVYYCQQYHRLPLSFGGGTKVEIK	0.67	6 of 6	0 of 18
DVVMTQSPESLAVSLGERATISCKCQQSQDYESRNKNAVAWYQQKAGQPPKLLIYNASQRLDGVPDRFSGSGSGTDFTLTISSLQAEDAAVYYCQQYHRLPLSFGGGTKVEIK	0.31	6 of 6	2 of 18
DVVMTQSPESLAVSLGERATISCASSGGWLYESRNKNSVAWYQQKAGQPPKLLIYGASTREDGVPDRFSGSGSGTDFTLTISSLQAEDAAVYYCQQYHRLPLSFGGGTKVEIK	-0.46	6 of 6	1 of 18

Top 2 of the variants detected in all replicates, tightest first:

VL,mean log10 Kd (nM),replicates with signal,empty controls
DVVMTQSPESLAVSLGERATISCASSGGWLYESRNKNSVAWYQQKAGQPPKLLIYGASTREDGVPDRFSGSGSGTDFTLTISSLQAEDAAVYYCQQYHRLPLSFGGGTKVEIK,-0.46,6 of 6,1 of 18
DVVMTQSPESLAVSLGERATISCKLQQSWLYESRNKNSVAWYQQKAGQPPKLLIYSASTREEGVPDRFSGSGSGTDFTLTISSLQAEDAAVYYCQQYHRLPLSFGGGTKVEIK,-0.40,6 of 6,2 of 18

As a blank, each scFv also met three strains without target: over all light chain designs, 4% of these pairings were detected, typically at 2.64 and seldom below 1.59. For each scFv, signals with the empty controls are counted beside the result.
A sequence measured in both rounds can read differently, since the two assays cover different ranges.
The authors averaged sequences with at least three values out of six and counted those with two or fewer as poor binders.